# Literature values, collected in US9926354B2, “Amyloid precursor protein (APP) based Ã#-secretase inhibitor peptides, and methods of use” (UNIVERSITY OF SOUTH FLORIDA, priority 2014, dated 2018).
# Amino acid sequences for entries named in this document (tags omitted). Residues count along the entry.
# UniProt P56817, 46-501: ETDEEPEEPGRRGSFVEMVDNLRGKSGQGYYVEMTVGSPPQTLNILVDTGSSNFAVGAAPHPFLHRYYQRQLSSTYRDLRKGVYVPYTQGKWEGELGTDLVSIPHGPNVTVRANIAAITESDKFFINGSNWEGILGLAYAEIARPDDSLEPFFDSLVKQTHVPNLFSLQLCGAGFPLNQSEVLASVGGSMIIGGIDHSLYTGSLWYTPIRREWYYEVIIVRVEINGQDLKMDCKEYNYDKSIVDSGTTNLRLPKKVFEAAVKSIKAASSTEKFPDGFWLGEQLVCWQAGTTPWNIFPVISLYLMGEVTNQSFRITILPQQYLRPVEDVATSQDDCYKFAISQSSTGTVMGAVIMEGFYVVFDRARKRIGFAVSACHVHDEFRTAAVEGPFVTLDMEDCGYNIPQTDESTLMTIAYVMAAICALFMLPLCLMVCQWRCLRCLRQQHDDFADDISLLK
# Target: BACE1 (Homo sapiens, UniProt P56817)
# Details: cited from earlier work
substance,measurement,value
EVNLA*AEF [OM99-2],ability to cross the BBB,too large (>18 amino acids residues) to cross the BBB
same,potency,high level of potency
same,stability,not stable enough for use in therapeutic trials
